What was measured:
[1] = biological target: T1, human A2B adenosine receptors (Homo sapiens, UniProt P29275); assay: cAMP accumulation in HEK-293 cells expressing A2B adenosine receptors; assay type: cell-based; details: up to 100 μM
T1 construct: expressed in transfected cells
T1 sequence (P29275 1-332): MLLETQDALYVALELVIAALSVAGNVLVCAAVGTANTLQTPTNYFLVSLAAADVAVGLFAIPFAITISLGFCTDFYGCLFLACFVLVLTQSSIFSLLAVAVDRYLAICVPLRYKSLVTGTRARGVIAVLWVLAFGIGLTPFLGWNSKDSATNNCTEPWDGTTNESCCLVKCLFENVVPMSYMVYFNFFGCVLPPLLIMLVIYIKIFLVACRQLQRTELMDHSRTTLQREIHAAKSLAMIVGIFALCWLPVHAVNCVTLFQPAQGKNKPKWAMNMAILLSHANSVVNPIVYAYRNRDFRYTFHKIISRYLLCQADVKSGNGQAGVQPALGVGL
Description: FIG. 4. […] Cyclic AMP levels were determined as described under “Methods”. Values represent mean±SEM of triplicate samples from three experiments.
HEK-293 cells stabily expressing recombinant human A2B adenosine receptors (HEK-hA2B adenosine receptors) were grown in DMEM supplemented with 10% fetal bovine serum and 0.5 mg/mL G-418.
Briefly, PC12 cells were rinsed three times with Hanks' balanced saline solution (HBSS), detached using a cell lifter, and pelleted by centrifugation at 500 g for 5 minutes. Aliquots of the cell suspension (0.1 to 0.2 mg protein) were placed in microfuge tubes with 250 μL of HBSS containing rolipram (50 μmol/L) to inhibit phosphodiesterases that degrade cAMP_and warmed to 37° C. […]
The cAMP content of the supernatant was determined by modification of a radioimmunoassay method described by Harper and Brooker (1975. J. Cyclic nucleotide Res 1:207). […] Antibody-bound radioactivity adsorbed to hydroxyapatite was collected onto glass fiber filters by vacuum filtration using a Brandel cell harvester. Radioactivity retained by the filter was counted in a gamma counter. Nonspecific binding of [^125I]ScAMP-TME was defined as radioactivity bound in the presence of 3 μmol/L unlabeled cAMP and was subtracted from total binding. The amount of cAMP present in samples was calculated based on a standard curve using known amounts of cAMP.

The chains behind the UniProt entries cited, without tags or fusion partners. Where a name states a change or a piece, a line headed by the entry shows the natural chain unless it says otherwise.
UniProt P30543, whole entry: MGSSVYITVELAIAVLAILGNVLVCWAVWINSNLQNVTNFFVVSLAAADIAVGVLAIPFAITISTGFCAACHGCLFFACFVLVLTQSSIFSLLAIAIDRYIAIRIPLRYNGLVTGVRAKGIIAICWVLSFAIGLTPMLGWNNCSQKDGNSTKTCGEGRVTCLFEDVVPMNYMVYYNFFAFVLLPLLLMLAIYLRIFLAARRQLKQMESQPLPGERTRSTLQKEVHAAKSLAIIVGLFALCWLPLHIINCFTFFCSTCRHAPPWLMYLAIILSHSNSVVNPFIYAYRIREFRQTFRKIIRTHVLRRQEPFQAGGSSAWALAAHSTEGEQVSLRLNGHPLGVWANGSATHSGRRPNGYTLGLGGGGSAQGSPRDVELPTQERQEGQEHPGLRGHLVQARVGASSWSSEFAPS

[2] = biological target: A2A adenosine receptors (Rattus norvegicus, UniProt P30543); assay: Competitive radioligand binding, [3H]ZM241385, PC12 cell membranes
[3] = biological target: A2A adenosine receptors (PC12 cells) (Rattus norvegicus, UniProt P30543); assay: Rate of decline of agonist-stimulated cAMP in PC12 cells after A2A antagonist SCH58261; details: agonist 1 μM, after addition of SCH58261 (20 μM)

| Compound | effect on cellular cAMP content [1] | pKi ± SEM, PC12 cells (A2A) [2] | Ki ([2]; read-out: Ki, PC12 cells (A2A)) [µM] | t0.5, rate of decline of cAMP accumulated [3] [min] |
| --- | --- | --- | --- | --- |
| CCNC(=O)[C@H]1O[C@@H](n2cnc3c(N)ncnc32)[C@H](O)[C@@H]1O [NECA, N-ethylcarboxamido-adenosine, reference compound] | concentration-dependent increase of cellular cAMP content |  |  |  |
| C[C@H](Cc1ccccc1)Nc1ncnc2c1ncn2[C@@H]1O[C@H](CO)[C@@H](O)[C@H]1O [R-PIA, Phenylisopropyladenosine, reference compound] |  | 5.48 ± 0.10 | 3.48 | 1.6 ± 0.2 |
